pIC50: −log10 of the molar value.
Target: T1, thrombin receptor (Homo sapiens, UniProt P25116)
T1 construct: In this assay, washed human platelets are prepared by the method of Baenzinger; endogenous in cells; host or cells: washed human platelets
T1 sequence (P25116 22-425): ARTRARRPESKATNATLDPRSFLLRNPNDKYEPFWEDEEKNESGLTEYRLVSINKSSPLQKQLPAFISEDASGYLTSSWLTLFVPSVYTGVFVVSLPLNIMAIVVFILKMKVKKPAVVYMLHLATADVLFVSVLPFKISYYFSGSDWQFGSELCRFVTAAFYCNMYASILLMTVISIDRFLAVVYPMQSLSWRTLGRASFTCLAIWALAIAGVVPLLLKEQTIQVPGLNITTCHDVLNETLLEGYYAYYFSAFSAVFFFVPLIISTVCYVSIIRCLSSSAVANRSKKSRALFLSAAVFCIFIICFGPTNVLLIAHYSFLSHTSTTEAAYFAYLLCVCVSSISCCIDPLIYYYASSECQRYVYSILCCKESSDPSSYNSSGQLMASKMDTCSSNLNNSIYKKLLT
Assay: Platelet activation/aggregation assays in the presence of thrombin, antagonist peptides
Type: cell-based
Settings: platelets, read-out: IC50 (50% inhibition of activation or aggregation)
Protocol: Platelet Aggregation: In this assay, washed human platelets are prepared by the method of Baenzinger, M. G., Meth Enzymol (1974) 31:149–155, or as described by Charo, I. F., et al., J Clin Invest (1977) 63:866–873. To induce aggregation, approximately 1–20 nM thrombin or EC50 of an alternate agonist is used to stimulate aggregation in control reactions; the results are followed by lumiaggregometry. Candidate agonists at various concentrations may be used in place of thrombin to stimulate aggregation. Candidate inhibitors are added to the reaction mixture in addition to the thrombin in order to assess their ability to prevent aggregation.
Washed platelets are suspended in modified Tyrode's buffer, pH 7.4 with 2 mM magnesium and 1 mM calcium at a concentration of 10^8 platelets/ml. […]
Platelet Aggregation Assay Using Microtiter Plates: Thrombin- or agonist-mediated platelet aggregation as measured with washed platelets in 96-well microtiter plates was performed as described (Fratantoni, J. C. et al., Am J Clin Pathol (1990) 94:613–617). The ability of hybridoma supernatants, purified MoAbs or peptide antagonists to block the thrombin receptor was assessed in this assay with various concentrations of antibodies or antagonists. […]

CSCCC(=O)N[C@@H](Cc1ccccc1)C(=O)N[C@@H](CC(C)C)C(=O)N[C@@H](CC(C)C)C(=O)N[C@@H](CCCNC(=N)N)C(N)=O [[SMe-Mpr]-FLLR-NH2]
pIC50: 3.00 to 3.30

Source: patent US7119182B1, “Recombinant thrombin receptor and related pharmaceuticals” (The Regents of the University of California, priority 1991, dated 2006)
